Screening results (PubChem BioAssay)
Nrf2 ARE act – activators of Nrf2 (ARE) signaling | AREc32 ARE-luciferase reporter (MCF7-derived line), luminescence, 24 h | Potency, µM (doses to about 46.1 µM), without a hit: top-dose activation, actives largely listed as activators | 410,000 tested, 0.31% active; note: potency is the fitted concentration of half-maximal effect; % of control where 0% means no effect; nearly all actives have a fitted effect of over 65% in size
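Quantitative high-throughput format: AREc32 reporter cells, 1000 per well, received compound by pin transfer and were incubated 24 hr at 37 deg C, 5% CO2, before Steady-Glo luminescence detection.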
TSG101-PTAP inh – blocks PTAP/TSG101 interaction to inhibit HIV-1 budding. Q99816. Fluorescence polarization, FITC-PTAP peptide / Tsg101 binding. Potency, µM (titrated, usually from 115 µM), inactives show top-dose activity change, negative = inhibition, most hits filed as inhibitors. 340,000 tested, under 10 active. AID 493005; active = well fitted inhibition curve with a large enough effect in the main read-out, with a control signal flat, not every such curve was filed as active; inconclusive = small, poorly fitted or top-dose-only effect, or effect the other way, or a change in a side signal; inactive = no such curve, though single readings can be large or run the other way; note: potency is the fitted concentration of half-maximal effect; % of control where 0% means no effect
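Compounds were pin-transferred onto Tsg101 binding domain (10 uM final) in HEPES pH 7.5 buffer, then FITC-PTAP peptide was added at 50 nM final. After 20 min at RT, polarization reported peptide displacement across a qHTS concentration series.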
Nrf2 inh – blocks Nrf2 signaling; Potency, µM (titrated, usually from 46 µM), without a hit: top-dose activity change, negative = inhibition, actives largely listed as inhibitors; A549 ARE-Fluc reporter, luciferase luminescence, 18-24 h; AID 504444; 360,000 tested, 2.1% active; note: potency is the fitted concentration of half-maximal effect; % is set by controls: 0 for no effect and ±100 for the full control effect; nearly all actives have a fitted effect of over 60% in size
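A549 ARE_Fluc cells, 5000/well, 5% FBS OPTI-MEM; compounds in dose-response, 18-24 h at 37 °C/5% CO2; CellTiter-Fluor viability read (Ex 405/Em 525), then BugLite luciferase luminescence = Nrf2 activity.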
Glioma ERSR ind – ER stress response induction in glioma; U87-MG GRP78 promoter luciferase reporter, 16 h; Potency, µM, for the others: at the top dose activation, usual class: activators; 420,000 tested, 0.02% active; AID 602332; note: potency is the fitted concentration of half-maximal effect; series mostly up to about 76 µM; % of control where 0% means no effect; nearly all actives have a fitted effect of over 35% in size
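Stably transfected U87-MG human glioma cells carrying a GRP78-based luminescent sensor were seeded at 1000 cells/well, pin-dosed with compounds and incubated 16 h. Luciferase reagent was then added, and end-point luminescence was read after 10 min at room temperature.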
A549 viability – A549 cytotoxicity, counter-screen for Nrf2 inhibitors; Potency, µM (doses to about 46 µM), inactives show top-dose activity change, negative = cytotoxicity, actives largely listed as inhibitors; A549 ARE-Fluc cells, CellTiter-Fluor viability, 18-24 h; 390,000 tested, 0.16% active; note: potency is the fitted concentration of half-maximal effect; % is set by controls: 0 for no effect and ±100 for the full control effect
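Cytotoxicity counterscreen: CellTiter-Fluor fluorescence was measured in A549 ARE_Fluc cells after 18-24 h of compound exposure in a concentration series. The subsequent BugLite luminescent read reports ARE-luciferase activity.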
miR-21 FLuc – raises the signal of a miR-21 reporter | HeLa miR-21 FLuc reporter, luciferase, 48 h | Potency, µM (doses to about 38.3 µM), without a hit: at the top dose reporter change, positive = more light | 340,000 tested, under 10 active | AID 2288; active = well fitted rising curve with a large enough effect; inconclusive = small, poorly fitted or top-dose-only effect; inactive = no such curve, though single readings can be large or run the other way;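 note: % of control where 0% means no effect; miR-21 action dims this reporter so a rising signal means less miR-21 action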
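Compounds were titrated across several concentrations (up to approximately 40 uM) and incubated 48 hours with HeLa miR-21-FLuc reporter cells (miR-21 target sequence downstream of FLuc, endogenous miR-21). Readout was firefly luciferase luminescence after lytic detection reagent.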
The depositor's hits bear a star; ? = inconclusive; . = not tested or not shown; [ ] = dose if it differs, or a comment. Compounds with a hit are over-represented: about 2.1% of the library has one in this group of screens. Unless noted, calls come from the whole dose curve; as a rule, active = well fitted curve in the direction sought with a large enough effect; inconclusive = small, poorly fitted or top-dose-only effect, or another doubt; inactive = no such curve, though single readings can be large; an effect the other way counts as inactive or inconclusive.

SMILES | Nrf2 ARE act | TSG101-PTAP inh | Nrf2 inh | Glioma ERSR ind | A549 viability | miR-21 FLuc
O=[N+]([O-])c1ccccc1N/N=C\c1ccccc1Cl | 10µM* | -3% | ? | 1% | -2% | -61%
CN(C)c1ccc(/C=C/c2ccnc3ccccc23)cc1Cl | . | . | . | -4% | . | .
CCOc1ccc(S(N)(=O)=O)cc1-c1nc2c(C(C)(C)C)nn(C)c2c(=O)[nH]1 | 0% | -3% | ? | -1% | 0% | -10%
CCOc1ccc(S(=O)(=O)NC(C)(C)C)cc1-c1nc2c(C(C)(C)C)nn(C)c2c(=O)[nH]1 | -2% | -1% | 21µM* | -3% | ? | ?
O=C(COc1ccccc1C(=O)Nc1ccccc1)Nc1ccc(Br)cc1 | . | . | . | -1% | . | .
CC(=O)C[C@H]1[C@H](O[C@H]2[C@H](OC(C)C(=O)N[C@@H](C)C(=O)N[C@H](CCC(=O)N[C@@H](CCCCN)C(=O)N[C@H](C)C(=O)O)C(N)=O)[C@@H](NC(=O)O)C(O)O[C@@H]2CO)O[C@H](CO)[C@@H](O)[C@@H]1O (stereo not given in full) | . | . | . | -3% | . | .
O=c1c2[nH]c3cc(Br)sc3c2cnn1Cc1ccccc1F | . | . | -11% | . | -11% | .
O=S(=O)(NC1CCCC1)c1ccc(S(=O)(=O)N2CCc3ccccc32)cc1 | 3% | -9% | 15µM* | 1% | ? | 21%
CCC(=O)Nc1ccc(S(=O)(=O)N2CCc3ccccc32)cc1 | -1% | -5% | 2% | -6% | ? | 2%
O=C(Nc1ccc(S(=O)(=O)N2CCc3ccccc32)cc1)c1ccco1 | 7% | -8% | 23µM* | -1% | 0%[1.84 µM] | 10%
O=C(NCc1ccco1)c1ccc(Cl)c(S(=O)(=O)N2CCc3ccccc32)c1 | 3% | -6% | 23µM* | 0% | 2% | 1%
COc1cc(/C=C(/C#N)c2ccccc2)ccc1Oc1ccc([N+](=O)[O-])cn1 | 2% | 3% | 15µM* | 5% | ? | 15%

Reprinted at random: six compounds from above.
SMILES | Nrf2 ARE act | TSG101-PTAP inh | Nrf2 inh | Glioma ERSR ind | A549 viability | miR-21 FLuc
O=c1c2[nH]c3cc(Br)sc3c2cnn1Cc1ccccc1F | . | . | -11% | . | -11% | .
O=S(=O)(NC1CCCC1)c1ccc(S(=O)(=O)N2CCc3ccccc32)cc1 | 3% | -9% | 15µM* | 1% | ? | 21%
CCC(=O)Nc1ccc(S(=O)(=O)N2CCc3ccccc32)cc1 | -1% | -5% | 2% | -6% | ? | 2%
COc1cc(/C=C(/C#N)c2ccccc2)ccc1Oc1ccc([N+](=O)[O-])cn1 | 2% | 3% | 15µM* | 5% | ? | 15%
O=C(NCc1ccco1)c1ccc(Cl)c(S(=O)(=O)N2CCc3ccccc32)c1 | 3% | -6% | 23µM* | 0% | 2% | 1%
CCOc1ccc(S(=O)(=O)NC(C)(C)C)cc1-c1nc2c(C(C)(C)C)nn(C)c2c(=O)[nH]1 | -2% | -1% | 21µM* | -3% | ? | ?

Additional records follow:
SMILES | Nrf2 ARE act | TSG101-PTAP inh | Nrf2 inh | Glioma ERSR ind | A549 viability | miR-21 FLuc
COc1cccc(C(=O)N/N=C/c2ccc(Oc3ccc([N+](=O)[O-])cn3)c(OC)c2)c1 | 0% | -3% | 23µM* | -3% | ? | 8%
COc1ccc(/C=N/NC(=O)c2cccc([N+](=O)[O-])c2)cc1OC(=O)c1ccc(C)cc1 | 0% | -5% | 21µM* | -3% | ? | 8%
COc1ccccc1-n1cc(CN2CCC3(CCC(CNC(=O)c4ccccc4)O3)CC2)cn1 (stereo not given) | . | . | . | -6% | . | .
N#C/C(=C1/SC[C@@H](c2ccc(Cl)cc2Cl)S1)n1ccnc1 | . | . | . | -4% | . | .
N#Cc1ccc(/C=C2/C=Cc3ccccc32)cc1 | . | . | . | -4% | . | .
O=C(Nc1ccc(F)cc1)c1cccnc1NCCc1ccccc1 | 0% | -2% | ? | 1% | -4% | -14%
O=C(Nc1cccc(F)c1)c1cccnc1NCCc1ccccc1 | 3% | -2% | 23µM* | -1% | -21% | -9%
Cc1ccc(S(=O)(=O)N(C)CCCC(=O)Nc2ccncc2)cc1 | -1% | 0% | 9.2µM* | -6% | -6% | 20%
Cc1ccc(S(=O)(=O)N(C)CCCC(=O)Nc2ccc(F)cc2)cc1 | 2% | -1% | -20% | -4% | -2% | 18%
COC1=C(N)C(=O)c2nc(-c3nc(C(=O)O)c(C)c(-c4ccc(OC)c(OC)c4O)c3N)ccc2C1=O | -4% | -3% | 0.073µM* | -11% | 2.6µM* | ?
CCN(CC)CCC(c1ccc2c(c1)OCO2)c1c(OC)cc(OC)c2c(C)cc(=O)oc12 (stereo not given) | . | . | 8% | -4% | -26% | .
CCN(CC)CCC(c1ccc(OC)cc1)c1c(OC)cc(OC)c2c(C)cc(=O)oc12 (stereo not given) | . | . | -5% | -4% | 12µM* | .
CC12CCC(C(=O)N3CCN(C(c4ccccc4)c4ccccc4)CC3)(OC1=O)C2(C)C (stereo not given) | -1% | -4% | 23µM* | -4% | -19% | -3%
CCOC(=O)C(C(C)=O)c1c(Br)c(O)c(O)c2c(C(=O)c3ccc(C)cc3)coc12 (stereo not given) | 23% | . | 7.3µM* | ? | 8.2µM* | ?
O=C1c2ccc(Br)cc2C(=O)N1c1ccc(Cc2ccncc2)cc1 | 2% | 0% | 21µM* | 1% | -14% | 0%
CC1CCCC(NC(=O)CCNS(=O)(=O)c2ccc(Br)cc2)C1C (stereo not given) | 1% | -7% | 15µM* | -5% | ? | 6%
COc1ccc(-c2nc3ccccc3c(=O)n2Cc2ccccc2)cc1CNc1ccc(NC(C)=O)cc1 | . | . | -9% | . | -9% | .
Cc1occc1C(=O)N/N=C/C(Br)=C\c1ccccc1 | 14µM* | -1% | ? | -2% | 1% | -8%
O=C(N/N=C/C(Br)=C/c1ccccc1)NC1CCCCC1 | ? | 1% | 1% | 8% | -10% | -32%
O=C(N/N=C/C(Br)=C/c1ccccc1)C(O)c1ccccc1 (stereo not given) | 11µM* | -1% | ? | 5% | -4% | -29%
O=C(N/N=C/C(Br)=C/c1ccccc1)C1CC1 | 20µM* | 0% | ? | 4% | -3% | -28%
O=C(O)c1ccc(N/N=C/C(Br)=C/c2ccccc2)cc1 | ? | -2% | ? | 7% | ? | -31%
COc1ccccc1-c1ccc(C(=O)N(C)CC2COCCO2)c(N2CCN(c3ccccc3F)CC2)n1 (stereo not given) | . | . | . | 0% | . | .
CCOC(=O)c1c(C)oc2nc(C)nc(NCCc3ccc(OCC)cc3)c12 | 1% | . | 23µM* | -3% | -3% | 1%
Cc1ccc(CNc2ccc(-c3nc(-c4cccnc4)no3)cc2[N+](=O)[O-])cc1 | 0% | . | 29µM* | 0% | -23% | ?
Cc1ccc(CNc2ccc(-c3nc(-c4ccncc4)no3)cc2[N+](=O)[O-])cc1 | 3% | . | -3% | -2% | -13% | ?
CCOC(=O)N1CCN(Cc2ccc3c(c2)CN(C(=O)c2sc(C)nc2C)CCO3)CC1 | . | . | . | 4% | . | .
Cc1cccc(OCC(=O)Nc2cc(C)c(O)c(-c3nc4ccccc4o3)c2)c1 | . | . | . | 1% | . | .
Cc1nc([N+](=O)[O-])c(Br)n1CC(=O)c1ccc(Br)cc1 | 14% | -5% | 23µM* | -16% | 16µM* | ?
Cc1cc(Br)cn2c(Cc3ccccc3C(F)(F)F)c(-c3cccc(Br)c3)nc12 | 10% | . | . | . | . | .
FC(F)(F)c1ccccc1Cc1c(-c2cccc(Br)c2)nc2c3ccccc3ccn12 | 13µM* | . | . | 3% | . | .
